# Results published in patent US20040235784A1, “Combination preparations of 3-n-formylhydroxylaminopropyl phosphonic acid derivatives or 3-n-acetylhydroxylaminopropyl phosphonic acid derivatives combined with specific pharmaceutical active agents” (priority 2000, published 2004).
# Test system: Plasmodium falciparum strains Dd2, 3D7 and HB3
# Assay: Sensitivity of Plasmodium falciparum to fosmidomycin in combination with different compounds, semi-automatic test by [3H]-hypoxanthin incorporation into parasite DNA
# Format: cell-based
# Conditions: drug in combination with fosmidomycin, sum FIC <1 synergism, >1 antagonism, =1 addition
# Procedure: The IC50-values of fosmidomycin and the respective combination partner were determined for the single compounds and in different ratios of mixture on microtitreplates. The results were defined as sum of fractional inhibitory concentration (sum fractional inhibitory concentration, FIC):
# sum FIC=IC50 of fosmidomycin in mixture/IC50 of fosmidomycin alone+IC50 of the combination partners in mixture/IC50 of combination partner alone
# Sum FIC-values <1 represent synergism, values >1 antargonism and values=1 addition.
compound,measurement,setting,value
CCC[C@@H]1C[C@@H](C(=O)N[C@@H]([C@H]2O[C@H](SC)[C@H](O)[C@@H](O)[C@H]2O)[C@H](C)Cl)N(C)C1 [clindamycin],sum FIC,P. falciparum strain 3D7,0.40
same,sum FIC,P. falciparum strain Dd2,0.42
same,sum FIC,P. falciparum strain HB3,0.37
